Experimental data reported in patent US20230287003A1, “BCL6 INHIBITORS” (Cancer Research Technology Limited, priority 2018, published 2023).

What was measured:
[1] = biological target: BCL6-NCOR2(SMRT) corepressor protein-protein interaction (Homo sapiens (Human), UniProt P41182); test: NanoBRET cell assay; type: cell-based; conditions: HEK293T cells co-transfected with BCL6-nanoLuc and NCOR2-HaloTag, 6 hr incubation; read-out: NanoBRET cell avg pIC50 (converted)
Description: At 20 hr post-transfection, cells were collected, washed with PBS, and exchanged into media containing phenol red-free OptiMEM+4% FBS (Life Technology).

[2] = biological target: human BCL6 BTB domain (Trx-6×His-BCL6) / BCOR-AF633 peptide (Homo sapiens (Human), UniProt P41182); test: HTRF assay; type: binding

Molecule `Cn1c(=O)c2c(c3cc(Nc4ccnc(Cl)c4C#N)ccc31)N[C@@H](C1CC1)CCO2` [Example 1d, (R)-2-chloro-4((2-cyclopropyl-7-methyl-6-oxo-1,2,3,4,6,7-hexahydro-[1,4]oxazepino[2,3-c]quinolin-10-yl)amino)nicotinonitrile] has an IC50 [1] of 0.204 µM.
In the case of `Cn1c(=O)c2c(c3cc(Nc4ccnc(Cl)c4C#N)ccc31)N[C@H](C1CC1)CCO2` [Example 1e, (S)-2-chloro-4((2-cyclopropyl-7-methyl-6-oxo-1,2,3,4,6,7-hexahydro-[1,4]oxazepino[2,3-c]quinolin-10-yl)amino)nicotinonitrile], the “HTRF avg pIC50 (1 nM)” value [2] is reported as 6.07.
